Source: US7507792B2, “MDA-7 proteins and methods of use thereof” (The Trustees of Columbia University In The City of New York, priority 1993, dated 2009)
Entries after “also recorded” stand apart in the source; their conditions may differ.

Columns and labels:
Type in all cases: cell-based, human
H0-1 cells = assay: Northern blotting of H0-1 RNA probed with mda cDNA clones; details: 24 hours
Protocol: FIG. 10 Northern blot analyses of untreated control and IFN-β, MEZ and IFN-β+MEZ treated H0-1 cells probed with cDNA clones isolated from an H0-1 IFN-β+MEZ (Ind^+) subtracted cDNA library. RNA was isolated from cells untreated or treated for 24 hours with IFN-β (2000 units/ml), MEZ (10 ng/ml) or IFN-β+MEZ (2000 units/ml and 10 ng/ml). Ten micrograms of total cellular RNA were separated on a 1% agarose gel, transferred to nylon membranes and then hybridized individually with radioactive probes prepared using appropriate inserts from the cDNA clones. The series of cDNAs isolated from inducer treated H0-1 cells have been tentatively called mda, melanoma differentiation associated, genes, Glyceraldehyde phosphate dehydrogenase (GAPDH) was used as a control for uniform loading and expression of the RNA samples.
(§1) The mass excision of the library was performed using ExAssist helper phage as described above. The SOLR strain of Escherichia coli and cDNA phagemids were mixed at 37° C. for 15 min and plated onto LB plates containing ampicillin and IPTG/X-gal. White colonies were chosen at random, isolated and grown in LB medium. Plasmid minireps and restriction enzyme digestions were performed to confirm the presence of inserts. The inserts were isolated and used as robes for Northern blotting analysis (5,25). Total cellular RNA was prepared from H0-1 cells treated with IFN-β (2000 units/ml), MEZ (10 ng/ml), and IFN-β plus MEZ (2000 units/ml plus 10 ng/ml), electrophoresed in 0.8% agarose gels and transferred to nylon membranes (Amersham, Arlington Heights, Ill.). Radiolabeled probes were generated by random oligonucleotide priming (25). Prehybridization, hybridization, posthybridization washes, and autoradiography were performed as described (5,18,25).

mda-6 = mda-6 expression (Northern blotting); details: H0-1
Protocol: as §1, with “Total cellular RNA was prepared from H0-1 cells treated with IFN-β (2000 units/ml), MEZ (10 ng/ml), and IFN-β plus MEZ (2000 units/ml plus 10 ng/ml), electrophoresed in 0.8% agarose gels and transferred to nylon membranes (Amersham, Arlington Heights, Ill.).” left out
Total cytoplasmic RNA was isolated and Northern blotting hybridization was performed as described (Reddy et al., 1991; Su et al., 1991; Jiang et al., 1992). Ten μg of RNA was denatured with glyoxal/DMSO, electrophoresed on 1.0% agarose gels, transferred to nylon membranes and hybridized to a ^32P-labeled p53 probe (Baker et al., 1990). […] Following hybridization, the filters were washed and exposed for autoradiography (Reddy et al., 1991; Su et al., 1991; Jiang et al., 1992). mda-6 and GAPDH gene expression were also determined by reverse transcription-polymerase chain reaction (RT-PCR) as described (Adollahi et al., 1991; Lin et al., 1994; Jiang et al., 1994b). […]

mda-9 = mda-9 expression (Northern blotting); details: H0-1
Protocol: (§2) FIG. 19 Effect of various treatment protocols on mda expression in H0-1 cells. IFN-β (2,000 units/ml, 24 hours); MEZ (10 ng/ml, 24 hours); IFN-β+MEZ (2,000 units/ml+10 ng/ml, 24 hours); phenyl butyrate (PB) (4 mM, 24 hours, 4 d, 7 d); γ Rad (γ irradiation) 3 gray, 24 hours, Act D (actinomycin D) (5 μg/ml, 2 hour→24 hours assay); Adriamycin (Adr) (0.1 μg/ml, 24 hours); Vincristine (Vin) (0.1 μg/ml, 24 hours); cis-plt (cis-platinum) (0.1 μg/ml, 24 hours); TNF-α (tumor necrosis factor-α) (100 units/ml, 24 hours); UV (10 joules/mm^2, 2, 14 and 24 hours assay); VP-16 (5 μg/ml, 24 hours); IFN-α (2,000 units/ml, 24 hours); and IFN-α+MEZ (2,000 units/ml+10 ng/ml, 24 hours).
(§3) The mass excision of the library was performed using ExAssist helper phage as described above. The SOLR strain of Escherichia coli and cDNA phagemids were mixed at 37° C. for 15 min and plated onto LB plates containing ampicillin and IPTG/X-gal. White colonies were chosen at random, isolated and grown in LB medium. Plasmid minireps and restriction enzyme digestions were performed to confirm the presence of inserts. The inserts were isolated and used as robes for Northern blotting analysis (5,25). […]

mda-4 = mda-4 expression (Northern blotting); details: H0-1
Protocol: as §2, §3

mda-8 = mda-8 expression (Northern blotting); details: H0-1
Protocol: as §2, §3

[1] = 96 hours, doses of FIG. 15 legend
[2] = 24 hours, doses of FIG. 19, phenyl butyrate 24 hours, 4 days or 7 days

B1: IFN-β: Recombinant human IFN-β, with a serine substituted for a cysteine at position 17 of the molecule (protein)
chain: MSYNLLGFLQRSSNFQCQKLLWQLNGRLEYCLKDRMNFDIPEEIKQLQQFQKEDAALTIYEMLQNIFAIFRQDSSSTGWNETIVENLLANVYHQINHLKTVLEEKLEKEDFTRGKLMSSLHLKRYYGRILHYLKAKEYSHCAWTIVRVEILRNFYFINRLTGYLRN
H0-1 cells
  mda-1 expression: increased expression
  mda-2 expression: increased expression
  mda-13 expression: increased expression
mda-6; 24 hours, doses of FIG. 19, phenyl butyrate 24 hours, 4 or 7 days
  mda-6 expression: increased expression; also recorded: smaller induction of mda-6 expression
mda-6; [1]
  mda-6 expression: no significant or reduced alteration in expression
mda-9; [2]
  mda-9 expression: Increased expression
mda-9; [1]
  mda-9 expression: No change in mda-9 expression
mda-4; [2]
  mda-4 expression: increased expression
mda-4; [1]
  mda-4 expression: No or only a small change in expression
mda-8; [2]
  mda-8 expression: Increased expression; also recorded: No change in expression
mda-8; [1]
  mda-8 expression: No change in expression
